{"source": "PubChem BioAssay AID1347073", "about": "(National Center for Advancing Translational Sciences (NCATS), 2019)", "note": "This is a selection; strong and weak results do not stand in their true shares. Records with an inconclusive call do not appear. Activity calls are given as the source filed them. Calls follow the shape of the dose curve; as a rule, active = well fitted activation curve with a large enough effect; inconclusive = small, poorly fitted or top-dose-only effect; inactive = no such curve, though single readings can be large or run the other way.", "data": [{"experiment": "qHTS of TDP-43 Inhibitors: NCGC Sytravon Library Screen; also: 0% is about no effect; nearly all actives have a fitted effect of over 55% in size", "details": "yeast TDP-43 toxicity rescue, BacTiter-Glo growth, 24 h; at 46.1 µM (top of the series)", "excerpt": "The goal of this project is to identify new chemical probes capable of reversing the toxicity associated with TDP-43 which is associated with frontotemporal lobar degeneration and amyotrophic lateral sclerosis. These compounds will provide a complementary approach to deciphering the tangled mechanisms of toxicity and protection that we have uncovered through genome-wide genetic screens and are beginning to uncover in a large-scale proteomics analysis with mass spectroscopy. To this end, a miniaturized assay was developed to be screened against the Molecular Libraries Small Molecule Repository (MLSMR) to discover TDP-43 inhibitors. Please note that in the set-up this yeast-based assay compounds that inhibit as TDP-43, have a read-out as activators. NIH Chemical Genomics Center [NCGC] NIH Molecular Libraries Probe Centers Network [MLPCN] Assay Submitter (PI): Susan Lindquist, Whitehead Institute/MIT MLPCN Grant: R21 NS060957\nDispense 2.5 microL yeast galactose medium per 1536-well plate, pin compound, dispense 2.5 microL TDP-43 expressing yeast in galactose medium at OD600=0.02 (pregrown in raffinose medium to mid-log phase) per well, incubate for 24 hr at 30 deg C, and cell growth will be measured using 5 microL of Bactiter/Glo reagent to entire plate and read using Luminescence Protocol in ViewLux.", "values": [{"smiles": "O=[N+]([O-])c1cc([N+](=O)[O-])c(-n2nnc3ccccc32)c([N+](=O)[O-])c1", "growth rescue (activation)": "inactive: -12.4%"}, {"smiles": "CP(=O)(Nc1cccc(Br)c1)Oc1ccccc1", "note": "(stereo unspecified)", "growth rescue (activation)": "inactive: 4.78%"}, {"smiles": "CN(C)C(=O)c1c([N+](=O)[O-])cc([N+](=O)[O-])cc1[N+](=O)[O-]", "growth rescue (activation)": "inactive: 13.7%"}, {"smiles": "COc1ccccc1OP(C)(=O)Nc1ccc(C)c(C)c1", "note": "(stereo unspecified)", "growth rescue (activation)": "inactive: -3.89%"}, {"smiles": "COc1ccccc1OP(C)(=O)Nc1ccc(Br)cc1", "note": "(stereo unspecified)", "growth rescue (activation)": "inactive: 29.3%"}, {"smiles": "CCCCCOc1ccc(NP(C)(=O)Oc2ccc(Cl)cc2Cl)cc1", "note": "(stereo unspecified)", "growth rescue (activation)": "inactive: -45.1%"}]}]}
